# Experimental data published in publication PMC7749003 (SLAS discovery : advancing life sciences R & D, 2020).
# Assay: stability of control compound in HTS source plates
# Details: source plates during HTS campaign
smiles,measurement,value
"CCCCCCCCCCCCC/C=C/[C@@H](O)[C@H](CO)NC(=O)NCCCCCC [C6 urea-ceramide, C6-Urea-Ceramide]",time until loss of activity,about 1 month
